Laboratory results reported in PMC9629855, “Development of ASIC1a ligand-gated ion channel drug screening assays across multiple automated patch clamp platforms” (Frontiers in Molecular Neuroscience, 2022).

What was measured:
[1] = system: endogenous proton-activated currents in HEK cells; assay type: cell-based, human
Procedure: (§1) CHO hASIC1a cells were cultured according to vendor instructions (B-SYS GmbH) and HEK cells using standard in-house methods. Both cell lines were harvested using optimized protocols and re-suspended in serum-free media (Gibco CHO-S-SFM from Thermo Fisher Scientific for CHO cells, and Ex-Cell 302 from Merck Sigma-Aldrich for HEK cells) to obtain a suspension of cells with smooth membranes and little debris, before transfer to the automated cell hotel consisting of a 60 ml plastic container (Sophion SB2050) and a magnetic stir bar to prevent cell clumping. […] Cell capture, sealing and whole-cell access was achieved using optimized QPatch protocols before currents were recorded using a holding potential of −60 mV. […]
(§2) Concentration-response xC50 curves from Patchliner and QPatch 48 experiments were calculated by plotting %inhibition (antagonists) or activation (pH) data against concentration in Prism software (GraphPad), using the variable sigmoidal dose-response function to fit the Hill equation with theoretical minimum block of 0% and maximum block of 100% and a free constant for Hill slope. […]

hASIC1a = target: T1, hASIC1a (Homo sapiens, UniProt P78348); assay type: cell-based; set-up: host or cells: CHO (tetracycline-inducible); details: pH 6.5 agonist, QPatch 48 single hole
T1 sequence (P78348 1-528): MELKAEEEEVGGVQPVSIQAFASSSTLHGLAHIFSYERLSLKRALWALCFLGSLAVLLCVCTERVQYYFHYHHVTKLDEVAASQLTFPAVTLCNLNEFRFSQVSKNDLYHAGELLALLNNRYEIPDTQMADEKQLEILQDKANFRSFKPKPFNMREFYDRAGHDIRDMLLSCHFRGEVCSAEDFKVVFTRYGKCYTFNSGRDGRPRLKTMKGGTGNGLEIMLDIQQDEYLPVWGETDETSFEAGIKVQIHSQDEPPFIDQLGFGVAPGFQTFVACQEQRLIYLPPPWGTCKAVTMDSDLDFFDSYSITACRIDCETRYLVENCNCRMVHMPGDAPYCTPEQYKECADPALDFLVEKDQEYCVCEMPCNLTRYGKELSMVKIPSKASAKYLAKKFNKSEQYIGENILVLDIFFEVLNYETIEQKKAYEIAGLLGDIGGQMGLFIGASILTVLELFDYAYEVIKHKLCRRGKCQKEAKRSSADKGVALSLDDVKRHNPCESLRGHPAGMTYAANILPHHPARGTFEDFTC
Procedure: as §1, §2

[2] = system: ASIC1b and ASIC1a/2a channels; set-up: method as in Liu et al., 2018; Cristofori-Armstrong et al., 2019; details: desensitizing acidic pH; ref Liu et al., 2018; Cristofori-Armstrong et al., 2019; cited from earlier work

CC[C@H](C)[C@@H]1NC(=O)[C@@H](NC(=O)[C@H](CC(=O)O)NC(=O)[C@@H](N)CCC(=O)O)CSSC[C@@H]2NC(=O)[C@@H]3CSSC[C@@H](C(=O)N[C@H](C(=O)N4CCC[C@H]4C(=O)N[C@@H](CCCCN)C(=O)N[C@H](C(=O)N4CCC[C@H]4C(=O)N[C@@H](CCCCN)C(=O)N[C@H](C(=O)O)[C@@H](C)O)[C@@H](C)O)C(C)C)NC(=O)[C@H](C(C)C)NC(=O)[C@H](CCC(=O)O)NC(=O)[C@H](Cc4ccccc4)NC(=O)[C@H](CO)NC(=O)[C@H](CCCNC(=N)N)NC(=O)[C@H](CCCNC(=N)N)NC(=O)[C@H](CCCNC(=N)N)NC(=O)[C@H](CCCCN)NC(=O)[C@H](Cc4c[nH]c5ccccc45)NC(=O)[C@H](CSSC[C@H](NC(=O)CNC(=O)[C@H](CCCCN)NC(=O)[C@H](Cc4c[nH]c5ccccc45)NC(=O)[C@H](CCCCN)NC(=O)[C@@H]4CCCN4C1=O)C(=O)N[C@@H](C(C)C)C(=O)N[C@@H](CC(N)=O)C(=O)N[C@@H](CCCNC(=N)N)C(=O)N[C@@H](Cc1c[nH]cn1)C(=O)NCC(=O)N[C@@H](CC(=O)O)C(=O)N3)NC(=O)[C@H](CCC(=O)O)NC(=O)[C@H](CC(C)C)NC(=O)CNC(=O)[C@H](CCC(=O)O)NC2=O [PcTx1]
potentiation of endogenous pH-evoked responses [1]: no evidence for such modulation
mean inhibition at highest concentration tested ([1]; 30 nM PcTx1): below 50%
Hill slope (hASIC1a): 2.2
potency of potentiation relative to ASIC1a inhibition (lower) [2]: ~10 fold
